Test results as given in US9226923B2, “Spirocyclic molecules as protein kinase inhibitors” (Nanjing Allgen Pharma Co. Ltd., priority 2011, dated 2016).

Protein sequences, listed by entry. Tags and fused reporters are not part of them. Residues count along the entry.
UniProt P08581, 25-1390: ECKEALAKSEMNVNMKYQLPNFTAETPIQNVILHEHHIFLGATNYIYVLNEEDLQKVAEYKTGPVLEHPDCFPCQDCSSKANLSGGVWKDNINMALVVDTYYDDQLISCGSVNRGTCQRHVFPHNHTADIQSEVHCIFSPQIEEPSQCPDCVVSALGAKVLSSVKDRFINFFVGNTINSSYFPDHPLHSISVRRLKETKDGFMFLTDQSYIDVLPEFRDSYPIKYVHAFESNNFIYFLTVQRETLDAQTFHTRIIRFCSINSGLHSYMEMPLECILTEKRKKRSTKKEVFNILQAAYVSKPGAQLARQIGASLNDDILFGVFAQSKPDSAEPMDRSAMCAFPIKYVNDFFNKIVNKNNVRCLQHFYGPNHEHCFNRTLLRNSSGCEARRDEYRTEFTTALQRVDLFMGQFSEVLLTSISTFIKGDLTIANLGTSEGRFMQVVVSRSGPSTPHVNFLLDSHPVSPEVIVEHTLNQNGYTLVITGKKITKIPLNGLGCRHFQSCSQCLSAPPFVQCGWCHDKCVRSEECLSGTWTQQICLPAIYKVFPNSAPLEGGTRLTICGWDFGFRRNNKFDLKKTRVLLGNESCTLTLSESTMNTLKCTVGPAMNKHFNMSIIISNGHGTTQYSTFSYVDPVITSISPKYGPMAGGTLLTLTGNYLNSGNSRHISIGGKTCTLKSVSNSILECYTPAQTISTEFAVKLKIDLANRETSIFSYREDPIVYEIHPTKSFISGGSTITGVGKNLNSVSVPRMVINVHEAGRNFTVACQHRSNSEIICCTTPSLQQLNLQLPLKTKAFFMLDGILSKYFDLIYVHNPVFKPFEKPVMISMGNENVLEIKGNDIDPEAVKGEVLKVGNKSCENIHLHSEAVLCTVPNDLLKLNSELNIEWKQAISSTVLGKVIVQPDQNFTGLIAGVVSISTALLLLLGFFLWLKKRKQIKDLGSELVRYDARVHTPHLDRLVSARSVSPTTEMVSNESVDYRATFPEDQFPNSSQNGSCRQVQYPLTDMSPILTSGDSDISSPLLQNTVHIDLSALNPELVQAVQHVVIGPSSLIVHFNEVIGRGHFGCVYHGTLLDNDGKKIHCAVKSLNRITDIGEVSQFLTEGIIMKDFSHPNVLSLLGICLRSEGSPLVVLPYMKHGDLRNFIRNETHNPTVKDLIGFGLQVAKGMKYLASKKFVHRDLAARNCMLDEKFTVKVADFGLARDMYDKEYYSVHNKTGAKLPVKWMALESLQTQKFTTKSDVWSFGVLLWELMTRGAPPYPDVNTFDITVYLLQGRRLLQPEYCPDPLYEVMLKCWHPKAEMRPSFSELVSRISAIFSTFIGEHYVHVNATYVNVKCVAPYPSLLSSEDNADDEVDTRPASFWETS

Target: Human cMet (Homo sapiens (Human), UniProt P08581)
Test: cMet enzyme inhibition assay (Reaction Biology Corporation)
Format: biochemical
Conditions: poly[Glu:Tyr] (4:1) 0.2 mg/ml, ATP 10 μM; read-out: Inhibitory Activities IC50, cMet

- IC50: 6.32 nM
SMILES: C[C@@H](Oc1cc(-c2cnn(C3CC4(CNC4)C3)c2)cnc1N)c1c(Cl)ccc(F)c1Cl [Example 2, (R)-5-(1-(2-azaspiro[3.3]heptan-6-yl)-1H-pyrazol-4-yl)-3-(1-(2,6-dichloro-3-fluorophenyl)ethoxy)pyridin-2-amine]
